From patent publication US5318901A, “Method for the production of a modified "8-amino acid" cyclosporin derivative” (Merck & Co., Inc., priority 1992, dated 1994)

System: freshly prepared proximal tubules from rabbit
Conditions: 30 μg/ml; 23 hours exposure; 3H-leucine incorporation per ug protein; rabbit proximal tubule suspensions

## 8-(2-deutero-3-fluoro-D-alanine)cyclosporin A
  Mean Specific Activity (± standard error): 92.0 (0.3) percent of control specific ac
